The test concerns KOR. Put plainly: Bias factor, cAMP inhibition vs Tango arrestin, U50,488 as reference. It counts as cell-based, human. Particulars: U50,488 reference = 1.

Regarding `CN(C(=O)Cc1ccc(Cl)c(Cl)c1)C1CCCCC1N1CCCC1` (stereo not shown), the “bias factor toward G protein (95% confidence interval)” value came out at 1.

Source of the values: PMC10008561, “Molecular mechanism of biased signaling at the kappa opioid receptor” (Nature Communications, 2023).
